Drawing on BindingDB's records for PubMed 2905001 (Mcneil Pharmaceutical, 1988), this text covers Ki for one compound.

Amino acid sequences for entries named in this document (tags omitted).
UniProt P14842, whole entry: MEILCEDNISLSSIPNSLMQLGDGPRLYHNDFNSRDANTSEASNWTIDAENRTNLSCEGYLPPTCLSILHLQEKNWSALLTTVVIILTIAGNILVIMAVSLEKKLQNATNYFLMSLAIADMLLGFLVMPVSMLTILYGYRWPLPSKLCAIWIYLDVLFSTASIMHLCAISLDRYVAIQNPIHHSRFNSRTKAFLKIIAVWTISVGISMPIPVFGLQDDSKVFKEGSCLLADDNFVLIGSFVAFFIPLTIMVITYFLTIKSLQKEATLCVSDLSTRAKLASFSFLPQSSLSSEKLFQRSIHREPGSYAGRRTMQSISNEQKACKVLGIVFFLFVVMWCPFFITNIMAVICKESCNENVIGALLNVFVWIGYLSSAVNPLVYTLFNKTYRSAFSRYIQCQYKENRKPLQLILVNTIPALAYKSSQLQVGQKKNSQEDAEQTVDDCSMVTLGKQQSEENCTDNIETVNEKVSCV

This assay has as its target 5-hydroxytryptamine receptor 2A (Rattus norvegicus, UniProt P14842).

Structures are written as SMILES. Counter-ions that a name gives are not always drawn.

`CN(C)CCCC1(c2ccc(F)cc2)OCc2cc(C#N)ccc21` (stereo unspecified) [CITALOPRAM HYDROBROMIDE] displayed a Ki of 1000 nM.

Usually Ki stands for a measure of affinity in units of concentration, obtained from inhibition or displacement.
